According to patent US12115208B2, “Small-molecule adjuvants for antibiotics to address antibiotic resistance” (HIGH POINT UNIVERSITY, priority 2017, dated 2024):

Tested on: β-lactamase, MRSA ATCC 43300
Assay: Whole cell nitrocefin hydrolysis assay
Format: cell-based, Staphylococcus aureus
Settings: intact MRSA 43300 cells

Row | SMILES | nitrocefin hydrolysis (absorbance at 486 nm) (amoxapine + oxacillin versus oxacillin alone) | nitrocefin hydrolysis (absorbance at 486 nm) (oxacillin alone (induction))
1 | Clc1ccc2c(c1)C(N1CCNCC1)=Nc1ccccc1O2 [Amoxapine, 2-chloro-11-(1-piperazinyl)dibenz[b,f][1,4]oxazepine] | markedly less absorbance | –
2 | Cc1onc(-c2ccccc2)c1C(=O)N[C@@H]1C(=O)N2[C@@H]1SC(C)(C)[C@@H]2C(=O)O [Oxacillin] | – | increased levels of nitrocefin hydrolysis
